Source: ChEMBL document CHEMBL5316332 (J Med Chem, 2023)

How the values were obtained:
[1] = Selectivity ratio of IC50 for inhibition of ACVRL1 (unknown origin) to IC50 for inhibition of recombinant C-terminal 6His-tagged human BMPR2 (188 to 517 residues) expressed in Escherichia coli Rosetta
[2] = Selectivity ratio of IC50 for inhibition of BMPR1B (unknown origin) to IC50 for inhibition of recombinant C-terminal 6His-tagged human BMPR2 (188 to 517 residues) expressed in Escherichia coli Rosetta
[3] = Selectivity ratio of IC50 for inhibition of BMPR1A (unknown origin) to IC50 for inhibition of recombinant C-terminal 6His-tagged human BMPR2 (188 to 517 residues) expressed in Escherichia coli Rosetta
[4] = Selectivity ratio of IC50 for inhibition of ACVR1 (unknown origin) to IC50 for inhibition of recombinant C-terminal 6His-tagged human BMPR2 (188 to 517 residues) expressed in Escherichia coli Rosetta
[5] = Selectivity ratio of IC50 for inhibition of TGFBR1 (unknown origin) to IC50 for inhibition of recombinant C-terminal 6His-tagged human BMPR2 (188 to 517 residues) expressed in Escherichia coli Rosetta
[6] = Selectivity ratio of IC50 for inhibition of TGFBR2 (unknown origin) to IC50 for inhibition of recombinant C-terminal 6His-tagged human BMPR2 (188 to 517 residues) expressed in Escherichia coli Rosetta

SMILES | Ratio IC50 [1] | Ratio IC50 [2] | Ratio IC50 [3] | Ratio IC50 [4] | Ratio IC50 [5] | Ratio IC50 [6]
NC(=O)c1cccc(CNC(=O)c2ccc3nc(-c4ccc5cnccc5c4)n(C4CCCC4)c3c2)c1 | 110 | > 830 | > 830 | 130 | > 830 | 
CNC(=O)[C@@H]1CC[C@@H](n2c(-c3ccc4cnccc4c3)nc3ccc(C(=O)NCc4cccc(C(N)=O)c4)cc32)C1 | 148 | > 555 | > 555 | 139 | > 555 | > 555
